# In US20250223607A1, “HPPD Variants and Methods of Use” (BASF Agricultural Solutions Seed US LLC, priority 2013, published 2025):
# Sequences of proteins named here, by UniProt entry; tags and fusion partners are left off. A line that says so, or that is headed by a name, gives the form on record, which may keep a tag or linker.
# UniProt P93836, whole entry E252S: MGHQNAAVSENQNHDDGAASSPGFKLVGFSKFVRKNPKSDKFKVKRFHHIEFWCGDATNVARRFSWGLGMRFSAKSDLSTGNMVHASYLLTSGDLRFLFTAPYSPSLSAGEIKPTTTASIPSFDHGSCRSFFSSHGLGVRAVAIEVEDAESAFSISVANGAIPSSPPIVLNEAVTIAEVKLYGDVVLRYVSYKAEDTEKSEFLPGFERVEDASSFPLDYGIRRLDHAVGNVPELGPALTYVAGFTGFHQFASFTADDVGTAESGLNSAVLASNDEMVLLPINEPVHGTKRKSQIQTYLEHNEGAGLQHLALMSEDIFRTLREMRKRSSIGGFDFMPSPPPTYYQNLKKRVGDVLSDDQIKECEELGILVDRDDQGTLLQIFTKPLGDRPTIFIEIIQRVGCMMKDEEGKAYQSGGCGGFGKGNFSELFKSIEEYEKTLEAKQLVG
# UniProt P93836, other isoform, or with tags, fused parts or gaps V269A: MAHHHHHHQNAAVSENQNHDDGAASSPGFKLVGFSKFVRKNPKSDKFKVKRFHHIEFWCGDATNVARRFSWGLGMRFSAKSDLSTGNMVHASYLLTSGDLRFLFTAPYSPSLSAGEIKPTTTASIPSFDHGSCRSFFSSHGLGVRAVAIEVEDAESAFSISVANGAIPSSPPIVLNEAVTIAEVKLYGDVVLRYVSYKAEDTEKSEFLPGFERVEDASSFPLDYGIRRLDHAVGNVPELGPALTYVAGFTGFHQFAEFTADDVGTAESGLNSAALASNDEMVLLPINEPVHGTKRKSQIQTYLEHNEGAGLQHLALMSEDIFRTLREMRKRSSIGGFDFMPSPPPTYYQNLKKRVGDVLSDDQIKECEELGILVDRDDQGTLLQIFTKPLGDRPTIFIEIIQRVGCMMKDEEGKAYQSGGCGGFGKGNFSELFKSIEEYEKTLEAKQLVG
# UniProt P93836, other isoform, or with tags, fused parts or gaps P280A: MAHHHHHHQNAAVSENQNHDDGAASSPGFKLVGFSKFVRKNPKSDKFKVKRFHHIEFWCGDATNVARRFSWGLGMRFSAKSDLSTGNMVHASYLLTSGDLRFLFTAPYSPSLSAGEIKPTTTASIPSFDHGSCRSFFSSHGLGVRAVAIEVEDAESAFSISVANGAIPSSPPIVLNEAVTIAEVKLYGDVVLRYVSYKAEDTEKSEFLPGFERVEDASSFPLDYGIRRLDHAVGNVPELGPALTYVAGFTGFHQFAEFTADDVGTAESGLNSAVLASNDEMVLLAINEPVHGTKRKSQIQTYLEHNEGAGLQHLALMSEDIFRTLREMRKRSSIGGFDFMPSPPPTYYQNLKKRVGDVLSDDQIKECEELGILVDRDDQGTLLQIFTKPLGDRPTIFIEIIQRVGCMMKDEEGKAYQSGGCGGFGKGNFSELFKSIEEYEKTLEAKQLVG
# UniProt P93836, other isoform, or with tags, fused parts or gaps L368M: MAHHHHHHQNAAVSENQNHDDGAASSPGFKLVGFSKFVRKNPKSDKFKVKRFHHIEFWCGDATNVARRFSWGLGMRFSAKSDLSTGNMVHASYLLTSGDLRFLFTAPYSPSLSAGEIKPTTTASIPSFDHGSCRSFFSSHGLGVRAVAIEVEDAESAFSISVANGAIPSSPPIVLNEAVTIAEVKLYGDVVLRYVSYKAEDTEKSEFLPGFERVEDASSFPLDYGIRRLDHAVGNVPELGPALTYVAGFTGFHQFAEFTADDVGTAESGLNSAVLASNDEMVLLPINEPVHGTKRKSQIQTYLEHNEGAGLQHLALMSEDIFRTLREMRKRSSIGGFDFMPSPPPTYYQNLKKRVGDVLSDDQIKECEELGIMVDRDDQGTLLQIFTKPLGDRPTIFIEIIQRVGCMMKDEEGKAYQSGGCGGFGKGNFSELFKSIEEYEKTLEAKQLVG
# UniProt P93836, other isoform, or with tags, fused parts or gaps K421I: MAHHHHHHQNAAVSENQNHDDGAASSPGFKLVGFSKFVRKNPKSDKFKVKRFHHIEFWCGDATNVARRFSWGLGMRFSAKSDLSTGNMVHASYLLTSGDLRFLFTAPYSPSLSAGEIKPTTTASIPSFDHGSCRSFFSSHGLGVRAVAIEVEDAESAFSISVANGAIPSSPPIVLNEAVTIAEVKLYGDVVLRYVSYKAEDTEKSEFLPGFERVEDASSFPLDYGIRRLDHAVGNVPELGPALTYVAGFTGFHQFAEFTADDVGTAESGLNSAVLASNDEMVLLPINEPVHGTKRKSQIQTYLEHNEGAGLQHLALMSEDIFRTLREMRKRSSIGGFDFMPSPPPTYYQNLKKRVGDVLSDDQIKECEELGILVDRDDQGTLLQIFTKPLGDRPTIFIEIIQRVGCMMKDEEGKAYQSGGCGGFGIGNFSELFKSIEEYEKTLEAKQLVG
# UniProt P93836, other isoform, or with tags, fused parts or gaps K421Q: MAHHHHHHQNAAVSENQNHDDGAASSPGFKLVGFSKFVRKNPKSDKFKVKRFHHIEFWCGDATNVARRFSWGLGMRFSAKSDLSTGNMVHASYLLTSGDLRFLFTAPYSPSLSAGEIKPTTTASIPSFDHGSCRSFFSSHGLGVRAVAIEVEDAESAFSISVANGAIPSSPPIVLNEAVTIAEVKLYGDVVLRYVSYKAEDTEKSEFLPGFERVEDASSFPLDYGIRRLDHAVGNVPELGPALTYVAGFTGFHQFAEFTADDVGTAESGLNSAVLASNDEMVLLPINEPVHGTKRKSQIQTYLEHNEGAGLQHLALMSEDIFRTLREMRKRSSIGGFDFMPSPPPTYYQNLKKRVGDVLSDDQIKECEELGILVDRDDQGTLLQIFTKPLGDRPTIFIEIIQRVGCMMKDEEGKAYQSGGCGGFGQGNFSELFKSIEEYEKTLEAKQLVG
# UniProt P93836, other isoform, or with tags, fused parts or gaps K421V: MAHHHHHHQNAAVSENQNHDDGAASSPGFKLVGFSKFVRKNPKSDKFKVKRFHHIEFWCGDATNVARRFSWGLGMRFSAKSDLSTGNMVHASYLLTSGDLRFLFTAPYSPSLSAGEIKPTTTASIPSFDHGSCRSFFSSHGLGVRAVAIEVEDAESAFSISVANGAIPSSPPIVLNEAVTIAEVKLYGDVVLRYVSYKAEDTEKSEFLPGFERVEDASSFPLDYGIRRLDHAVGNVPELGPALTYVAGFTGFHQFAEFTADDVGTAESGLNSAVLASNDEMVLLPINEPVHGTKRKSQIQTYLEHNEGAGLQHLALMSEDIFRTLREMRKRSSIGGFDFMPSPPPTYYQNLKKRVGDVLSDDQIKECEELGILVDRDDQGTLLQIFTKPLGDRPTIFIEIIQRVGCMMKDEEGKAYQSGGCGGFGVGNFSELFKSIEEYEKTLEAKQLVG
# How the values were obtained:
# Assay in all cases: biochemical
# [1] = target: T1, Arabidopsis HPPD single point mutant SEQ ID No. 35 (Arabidopsis thaliana, UniProt P93836, E252S)
# T1 construct: made in house; host or cells: E. coli BL21 (DE3)
# Text: (§1) In this content, pI50-value means the log value of the concentration of inhibitor necessary to inhibit 50% of the enzyme activity in molar concentration.
# [2] = target: T2, Arabidopsis HPPD single point mutant SEQ ID No. 40 (Arabidopsis thaliana, UniProt P93836, V269A)
# T2 construct: made in house; host or cells: E. coli BL21 (DE3)
# Text: as §1
# [3] = target: T3, Arabidopsis HPPD single point mutant SEQ ID No. 42 (Arabidopsis thaliana, UniProt P93836, P280A)
# T3 construct: made in house; host or cells: E. coli BL21 (DE3)
# Text: as §1
# [4] = target: T4, Arabidopsis HPPD single point mutant SEQ ID No. 44 (Arabidopsis thaliana, UniProt P93836, L368M)
# T4 construct: made in house; host or cells: E. coli BL21 (DE3)
# Text: as §1
# [5] = target: T5, Arabidopsis HPPD single point mutant SEQ ID No. 46 (Arabidopsis thaliana, UniProt P93836, K421I)
# T5 construct: made in house; host or cells: E. coli BL21 (DE3)
# Text: as §1
# [6] = target: T6, Arabidopsis HPPD single point mutant SEQ ID No. 48 (Arabidopsis thaliana, UniProt P93836, K421Q)
# T6 construct: made in house; host or cells: E. coli BL21 (DE3)
# Text: as §1
# [7] = target: T7, Arabidopsis HPPD single point mutant SEQ ID No. 50 (Arabidopsis thaliana, UniProt P93836, K421V)
# T7 construct: made in house; host or cells: E. coli BL21 (DE3)
# Text: as §1
SMILES,IC50 [1],IC50 [2],IC50 [3],IC50 [4],IC50 [5],IC50 [6],IC50 [7]
"CS(=O)(=O)c1ccc(C(=O)C2C(=O)CCCC2=O)c(Cl)c1COCC1CCCO1 (centres unmarked) [Tefuryltrione, 2-[2-chloro-4-(methylsulfonyl)-3-[[(tetrahydro-2-furanyl)methoxy]methyl]benzoyl]-1,3 cyclohexanedione]",6.31 µM,3.98 µM,3.16 µM,< 2.51 µM,6.31 µM,< 2.51 µM,3.98 µM
"CS(=O)(=O)c1cc(C(F)(F)F)ccc1C(=O)C(C#N)C(=O)C1CC1 (centres unmarked) [Diketonitrile, 2-cyano-3-cyclopropyl-1-(2-methylsulphonyl-4-trifluoromethylphenyl)-propane-1,3-dione]",12.6 µM,6.31 µM,6.31 µM,2.51 µM,10 µM,< 2.51 µM,7.94 µM
